The values that follow are results of earlier work, collected in patent US12162877B2, “Human dihydroorotate dehydrogenase (hDHODH) inhibitors and their use in targeting oncological diseases sensitive to pyrimidine starvation” (DRUG DISCOVERY AND CLINIC S.R.L., priority 2018, dated 2024).

Sequences of proteins named here, by UniProt entry; tags and fusion partners are left off. Residues count along the entry.
UniProt Q02127, 31-395 limits assumed: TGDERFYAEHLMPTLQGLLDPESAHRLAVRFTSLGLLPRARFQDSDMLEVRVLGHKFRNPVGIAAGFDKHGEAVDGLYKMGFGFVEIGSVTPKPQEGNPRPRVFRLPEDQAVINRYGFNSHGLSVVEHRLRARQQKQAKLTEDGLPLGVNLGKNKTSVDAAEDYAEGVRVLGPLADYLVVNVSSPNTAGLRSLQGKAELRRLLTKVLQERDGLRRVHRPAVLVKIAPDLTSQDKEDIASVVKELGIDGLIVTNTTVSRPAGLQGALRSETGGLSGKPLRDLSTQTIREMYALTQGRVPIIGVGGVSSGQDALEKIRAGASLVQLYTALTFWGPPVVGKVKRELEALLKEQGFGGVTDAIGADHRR

As a reminder, the IC50 is the point on the concentration scale where inhibition reaches its midpoint.

This series addresses recombinant hDHODH (Homo sapiens (Human), UniProt Q02127). To be noted: read-out: hDHODH IC50; earlier series of the inventors (refs 17, 23); cited from earlier work.

Molecules are shown by their SMILES.

Turning to `O=C(Nc1c(F)c(F)c(-c2ccccc2)c(F)c1F)c1nsnc1O`, the 50% inhibitory concentration (IC50) is 16 nM.
